# The entries are a selection whose mix differs from that of the whole data set. The source made the active and inactive calls.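 The calls were made as follows: active = inhibition over about 50% at 20 µM in the single-dose screen (limit read from the data); inactive = the rest.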
# By UniProt entry, the sequences of proteins in these tests, tags left out.
# UniProt Q01196, whole entry, looked up: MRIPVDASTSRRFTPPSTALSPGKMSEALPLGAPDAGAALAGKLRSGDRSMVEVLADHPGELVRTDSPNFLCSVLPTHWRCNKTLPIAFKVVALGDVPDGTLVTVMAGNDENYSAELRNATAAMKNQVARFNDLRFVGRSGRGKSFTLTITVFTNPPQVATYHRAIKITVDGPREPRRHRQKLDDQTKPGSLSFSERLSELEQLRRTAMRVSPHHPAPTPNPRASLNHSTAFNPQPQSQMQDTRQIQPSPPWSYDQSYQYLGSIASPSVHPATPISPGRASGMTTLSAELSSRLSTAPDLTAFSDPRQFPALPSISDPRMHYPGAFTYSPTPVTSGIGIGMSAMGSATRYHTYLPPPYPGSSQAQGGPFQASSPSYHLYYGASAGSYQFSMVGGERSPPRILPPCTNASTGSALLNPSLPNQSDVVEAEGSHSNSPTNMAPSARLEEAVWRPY
# UniProt Q13951, whole entry, looked up: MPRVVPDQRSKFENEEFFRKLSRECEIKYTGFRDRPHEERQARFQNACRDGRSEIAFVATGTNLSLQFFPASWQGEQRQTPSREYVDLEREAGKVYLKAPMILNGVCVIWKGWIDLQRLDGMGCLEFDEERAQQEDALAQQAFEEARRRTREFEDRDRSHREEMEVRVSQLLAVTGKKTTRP
# Molecular target: Runt-related transcription factor 1 (Homo sapiens) + Core-binding factor subunit beta (Homo sapiens) (UniProt Q01196+Q13951)
# Experiment: inhibitors of RUNX1 Runt–CBFb binding, primary screen, biochemical, FRET, Cerulean-Runt, Venus-CBFb, uHTS (AID 1496);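 also: 0% = DMSO wells and 100% = excess unlabeled CBFb competitor control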
# Settings: Cerulean-Runt/Venus-CBFb FRET ratio 530/480, 1 h; at 20 µM; hits give high values
# Outline: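 Assay system: Cerulean-tagged RUNX1 Runt domain (FRET donor) fusion protein / Amount: 100 nM each of Venus-CBFb and Cerulean-Runt domain / Medium: Tris buffer pH 7.5 with salts and BSA / Also added: Venus-CBFb 100 nM / Schedule: 1 h complex formation plus 1 h compound treatment, room temperature / Signal: FRET fluorescence / Read-out: loss of energy transfer signal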
row,SMILES,inhibition
1,O=C(O)COc1ccc([As](=O)(O)O)cc1[N+](=O)[O-],inactive: 2.1%
2,Nc1ccccc1[As](=O)(O)c1ccccc1,inactive: -0.9%
3,CCOP1(=S)c2c(C)nn(CCC#N)c2N=C(c2ccccc2F)N1C (stereo not given),inactive: -0.1%
4,O=P(Nc1nccs1)(c1ccccc1)c1nc2ccccc2s1 (stereo not given),inactive: 20%
5,CS(=O)(=O)c1cc([N+](=O)[O-])c2no[n+]([O-])c2c1,inactive: -135%
6,CN(C(=O)Cc1ccccc1)[C@@H]1CC[C@]2(CCCO2)C[C@H]1N1CCCC1,inactive: 3.7%
7,CCOP1(=S)c2c(C)nn(CCC#N)c2N=C(c2ccc(F)cc2)N1C (stereo not given),inactive: -1.1%
8,O=[N+]([O-])c1ccc2c(c1)nnn2O,inactive: 0.8%
9,NC(=O)Nc1ccc([As](=O)(O)O)cc1,inactive: 0.5%
10,Cc1cccc(OCC(=O)OC2CN3CCC2CC3)c1 (stereo not given),inactive: -0.8%
11,O=[As](O)(c1cccc(O)c1)c1cccc(O)c1,inactive: 1.1%
12,O=C(OC1CN2CCC1CC2)c1ccc(Cl)cc1 (stereo not given),inactive: -0.3%
13,O=[As](O)(O)c1cccnc1,inactive: -0.2%
14,COc1cc(C(=O)NCC2(N3CCOCC3)CCCCC2)cc(Cl)c1OC(C)C,inactive: -2.9%
15,COc1cc(C2NCCC3(OCCO3)C2(C)C)cc(OC)c1OC (stereo not given),inactive: -0.9%
16,CCOP(=O)(Nc1cccc2ccccc12)OCC,inactive: -2.7%
17,Nc1cccc2c([As](=O)(O)O)cccc12,inactive: -95.6%
18,Cc1ccc(NCCc2c([N+](=O)[O-])cc([N+](=O)[O-])cc2[N+](=O)[O-])cc1,inactive: 8.1%
19,CCCOP(=S)(Nc1nc(N)cc(=O)[nH]1)OCCC,inactive: 2.4%
20,Clc1n[nH]nc1-c1nn[nH][15n]1,inactive: 4.1%

row,SMILES,inhibition
1,CC(C)(C)C(=O)NC(Sc1ncccn1)C(Cl)(Cl)Cl (stereo not given),inactive: 6.7%
2,O=P1(Nc2ccccn2)COc2ccccc2OC1,inactive: -0.3%
3,CCOP(=O)(Nc1ccc(C)cn1)OCC,inactive: 1%
4,CN(C(=O)Cc1ccc(Cl)c(Cl)c1)[C@@H]1CCCC[C@H]1N1CCCC1,inactive: 0.6%
5,CC(C)/C=N\N=C(\N)N[N+](=O)[O-],inactive: -0.5%
6,O=[As](O)(c1ccccc1Br)c1ccccc1Br,inactive: -0.1%
7,CN(C)C1(CNC(=O)c2ccc(S(C)(=O)=O)cc2)CCCCC1,inactive: 1.4%
8,O=C(/C=C/c1ccccc1)OC1CN2CCC1CC2 (stereo not given),inactive: 1.2%
9,Cc1nn(-c2ccccc2)c2c1P(=O)(N1CCOCC1)N(C)C(c1ccccc1)=N2 (stereo not given),inactive: 0.5%
10,CC1CCC(C(C)C)C(OP(=O)(Nc2ccccn2)c2ccccc2)C1 (stereo not given),inactive: -3.8%
11,Nc1cccc([As](=O)(O)c2ccccc2)c1,inactive: -1.2%
12,O=[As](O)(c1cccs1)c1cccs1,inactive: 1.5%
13,Cc1ccc(OCC(=O)OC2CN3CCC2CC3)cc1 (stereo not given),inactive: 0.1%
14,O=P1(Nc2ccc(Br)cn2)COc2ccccc2OC1,inactive: 0.4%
15,O=P1(Nc2ncccn2)COc2ccccc2OC1,inactive: 0.4%
16,Cc1cc(SC(NC(=O)c2ccccc2)C(Cl)(Cl)Cl)nc(C(C)C)n1 (stereo not given),inactive: 43.1%
17,CCOC(=O)Nc1ccc([As](=O)(O)O)c(O)c1,inactive: 6.4%
18,Cc1cc(SC(NC=O)C(Cl)(Cl)Cl)ncn1 (stereo not given),inactive: 44.4%
19,O=P(Nc1ccccn1)(c1cccc2ccccc12)c1cccc2ccccc12,inactive: 1.3%
20,O=[N+]([O-])c1ccc(Nc2ccc(Oc3ccc([N+](=O)[O-])cc3[N+](=O)[O-])cc2)c([N+](=O)[O-])c1,inactive: 1.1%

row,SMILES,inhibition
1,CCOC(=O)Nc1cccc([As](=O)(O)O)c1,inactive: 1.3%
2,O=C(COc1ccccc1)OC1CN2CCC1CC2 (stereo not given),inactive: -0.4%
3,COP1(=S)c2c(C)nn(CCC#N)c2N=C(c2ccc(F)cc2)N1C (stereo not given),inactive: 0.5%
4,CCC(C)N(CC(C)C)C(=S)SC(NC(C)=O)C(Cl)(Cl)Cl (stereo not given),inactive: 12.4%
5,CCOC(=O)c1ccc(NC(=O)C(C)(CCl)SC)cc1 (stereo not given),inactive: 1.3%
6,COc1ccc2nc(NP(=O)(c3ccccc3)c3ccccc3)sc2c1,inactive: 0%
7,COc1cc(I)ccc1[As](=O)(O)O,inactive: -0.4%
8,Cc1c2c(nc3ccccc13)SC(C(Cl)Cl)C2 (stereo not given),inactive: 0.9%
9,O=C(OC1CN2CCC1CC2)C12CC3CC(CC(C3)C1)C2 (stereo not given),inactive: -1.8%
10,Cc1cc(=O)[nH]c(N[N+](=O)[O-])n1,inactive: 1.1%
11,COc1ccc(N/C(=N/P(=O)(N2CCOCC2)N2CCOCC2)N2CCOCC2)cc1,inactive: -0.9%
12,Cc1ccc(OP(=O)(Nc2ccc([N+](=O)[O-])cn2)Oc2ccc(C)cc2)cc1,inactive: -0.4%
13,Cc1ccc2nc3c(c(C)c2c1)CC(C(Cl)Cl)S3 (stereo not given),inactive: -0.2%
14,O=[As](O)(c1ccc(O)cc1)c1ccccc1O,inactive: -2.9%
15,C[As](=O)(O)c1cccc(C(=O)O)c1,inactive: 0.4%
16,CC(C)NC(=O)NP(=O)(Oc1ccccc1)Oc1ccccc1,inactive: 0.6%
17,CCN(CC)C(=S)SC(NC=O)C(Cl)(Cl)Cl (stereo not given),inactive: 3%
18,O=[N+]([O-])c1cc([N+](=O)[O-])c(-c2ccn[nH]2)s1,inactive: 20.3%
19,ClCCSc1nnc(-c2cccnc2)o1,inactive: 0.3%
20,CC(C)c1ccc(OP(=O)(Nc2ccccn2)Oc2ccccc2F)cc1 (stereo not given),inactive: -1.1%

# Reference: PubChem BioAssay AID1496 (Sanford-Burnham Center for Chemical Genomics, 2009)
